Each structure is given as a SMILES string. Only a part is listed here, and it is no random draw. Calls of active or inactive are those of the source.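 The calls were made as follows: active = mean inhibition at least 40% at 20 µM, or signal 3 deviations below plate average, so some actives read negative; inactive = the rest.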

By UniProt entry, the sequences of proteins in these tests, tags left out.
UniProt P00735, whole entry: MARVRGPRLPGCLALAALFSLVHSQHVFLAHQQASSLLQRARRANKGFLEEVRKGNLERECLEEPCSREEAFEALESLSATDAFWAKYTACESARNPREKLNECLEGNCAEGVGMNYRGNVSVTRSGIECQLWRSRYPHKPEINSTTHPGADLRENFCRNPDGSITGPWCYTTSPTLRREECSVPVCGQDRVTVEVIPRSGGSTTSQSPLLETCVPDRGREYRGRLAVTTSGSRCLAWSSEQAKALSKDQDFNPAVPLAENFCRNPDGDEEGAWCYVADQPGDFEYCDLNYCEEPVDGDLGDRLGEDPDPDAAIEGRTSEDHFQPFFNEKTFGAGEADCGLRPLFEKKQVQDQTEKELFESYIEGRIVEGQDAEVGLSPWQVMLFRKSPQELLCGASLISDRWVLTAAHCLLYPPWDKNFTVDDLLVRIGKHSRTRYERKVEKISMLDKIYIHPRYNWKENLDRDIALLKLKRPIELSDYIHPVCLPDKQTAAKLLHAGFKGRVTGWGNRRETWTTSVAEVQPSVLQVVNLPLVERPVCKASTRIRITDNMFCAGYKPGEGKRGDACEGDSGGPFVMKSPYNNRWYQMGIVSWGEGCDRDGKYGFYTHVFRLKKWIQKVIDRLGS

This assay deals with Prothrombin (Bos taurus) (UniProt P00735). In words: blocking of thrombin cleavage of Ub4 substrate – biochemical, fluorescence polarization, single concentration, counter-screen for Rpn11 inhibitor project, confirmation (AID 602333).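 Also: plate controls were thrombin with DMSO for no effect and buffer wells lacking thrombin for full effect.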 The conditions noted are these: bovine thrombin cleavage of Ub4-pepOG, at 20 µM, hits give high values. On the technique in general: Fluorescence polarisation rises when a labelled molecule tumbles more slowly, as on binding a larger partner.
Consider `CCCCCCCCCCCCCCCC1C[N+](C)(C)CCOP(C)(=O)O1` (stereo unspecified), for which the inhibition is inactive: -12.4%.

The term inhibition denotes the relative decrease from the control value, in per cent.
